Our source for the IC50 values is ChEMBL document CHEMBL1152459, “Drugs designed to inhibit human p38 mitogen-activated protein kinase activation treat Toxoplasma gondii and Encephalitozoon cuniculi infection” (Antimicrob Agents Chemother, 2007).

This assay has as its target T1, Mitogen-activated protein kinase 1 (Toxoplasma gondii, UniProt Q5SC61).
T1 sequence (Q5SC61 whole entry): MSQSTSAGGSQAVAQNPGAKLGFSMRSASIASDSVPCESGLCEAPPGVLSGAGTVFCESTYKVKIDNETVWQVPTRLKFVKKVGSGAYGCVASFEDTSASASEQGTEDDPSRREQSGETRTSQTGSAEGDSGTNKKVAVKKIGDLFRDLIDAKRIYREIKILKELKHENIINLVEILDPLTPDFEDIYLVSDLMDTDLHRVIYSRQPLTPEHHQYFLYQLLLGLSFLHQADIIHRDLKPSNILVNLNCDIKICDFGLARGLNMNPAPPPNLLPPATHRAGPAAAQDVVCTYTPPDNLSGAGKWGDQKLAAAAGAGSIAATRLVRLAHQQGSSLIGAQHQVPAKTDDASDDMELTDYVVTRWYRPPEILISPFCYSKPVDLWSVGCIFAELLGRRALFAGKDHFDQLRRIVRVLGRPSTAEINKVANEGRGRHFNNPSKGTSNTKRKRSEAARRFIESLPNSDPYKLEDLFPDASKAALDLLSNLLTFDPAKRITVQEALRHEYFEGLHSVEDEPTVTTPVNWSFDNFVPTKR
Briefly: Inhibition of Toxoplasma gondii recombinant MAPK1 expressed in Escherichia coli. It is filed as cell-free.

SMILES strings stand for the structures.

By IC50 is commonly meant the midpoint of a concentration-inhibition curve.

Regarding `C[S+]([O-])c1ccc(-c2nc(-c3ccncc3)c(-c3ccc(F)cc3)[nH]2)cc1` (stereo unspecified) [SB-203580], the 50% inhibitory concentration (IC50) worked out at 100 nM.
